Test system: Her-2 in SkBr3 cells
Experiment: Her-2 depletion in SkBr3 cells (pharmacodynamic marker of cellular efficacy)
Type: cell-based
Conditions: read-out: PD (μM), pharmacodynamic EC50, Her-2 depletion; SkBr3 cells treated with the inhibitor overnight

CCCC1C/C=C/CCCCC(=NOCC(=O)N2CCCCC2)Cc2c(Cl)c(O)cc(O)c2C(=O)O1 (stereo not drawn)
EC50: ≤ 5 µM

CCCC1C/C=C/CCCCC(=NOCC(=O)N2CCCCC2)Cc2cc(O)cc(O)c2C(=O)O1 (stereo not drawn)
EC50: > 10 µM

O=C1OCC/C=C/CCCCC(=NOCC(=O)N2CCCCC2)Cc2c(Cl)c(O)cc(O)c21
EC50: ≤ 10 µM

— patent US20150374680A1, “POCHOXIME CONJUGATES USEFUL FOR THE TREATMENT OF HSP90 RELATED PATHOLOGIES” (UNIVERSITE DE STRASBOURG, priority 2010, published 2015)
